Reference: patent US20070207975A1, “Materials and methods for treating and preventing Her-2/neu overexpressing, FAS-elevated cancer cells” (EVANSTON NORTHWESTERN HEALTHCARE, priority 2006, published 2007)

How the values were obtained:
BT-474 cells = assay: TUNEL apoptosis assay, BT-474; format: cell-based, human
Protocol: FIG. 6. […] The immunofluorescence photomicrographs of cells undergoing apoptosis (green staining) and the corresponding DAPI-counterstained photomicrographs are shown. […] Equal amounts of total protein (50 μg per lane) were subjected to Western blot analyses with a specific antibody against the p85 fragment of PARP, and then re-probed with a β-actin antibody. […] Similar results were obtained in three independent experiments. […] For each pair of columns, the height of the columns on the left represents the sum of the effect of each agent alone and, therefore, the expected apoptotic cell death if their effect was additive when used in combination. […] A) Cell surface expression of Her-2/neu protein in BT-474 and SK-Br3 cells was determined by flow cytometry using a mouse anti-Her-2/neu antibody directed against the extracellular domain of the p185^Her-2/neu oncoprotein (clone Ab-5; Oncogene Research Products; San Diego, Calif.). […] The mean fluorescence signal associated with cells for labeled p185^Her-2/neu was quantified using the Geo Mean (GM) fluorescence parameter provided with the software. […] Immunoreactive bands were detected by enhanced chemiluminescence reagent (Pierce, Rockford, Ill.). […] Densitometric values of protein bands were quantified using Scion Imaging Software (Scion Corp., Frederick, Md.). […]

p27^Kip1 = assay: Immunofluorescence of p27Kip1 cellular localization; format: cell-based, human; conditions: BT-474; suboptimal trastuzumab, without or with OA; 72 hours
Protocol: FIG. 7. Exogenous supplementation with OA synergistically enhances trastuzumab-induced up-regulation and nuclear accumulation of p27^Kip1. […] Equal amounts of total protein (50 mg per lane) were subjected to Western blot analyses with an anti-p27^Kip1 rabbit polyclonal antibody and then re-probed with a β-actin antibody. […] Similar results were obtained in three independent experiments. […] After 72 hours, p27^Kip1 cellular localization was evaluated by immunofluorescence following a 2 hour incubation with an anti-p27^Kip1 rabbit polyclonal antibody diluted 1:200 in 0.05% Triton X-100/PBS. Cellular localization of P27^Kip1 was detected by indirect immunofluorescence by incubating with TRITC-conjugated anti-rabbit IgG secondary antibody. Cells were examined and photographed using a Zeiss fluorescent microscope equipped with a built-in camera. […] Similar results were obtained in three independent experiments.
Cells were seeded at a density of 1×10^4 cells/well in a four-well chamber slide (Nalge Nunc International, Rochester, N.Y.). […] The cells were washed and then incubated for 2 hours with anti-p185^Her-2/neu or anti-p27^Kip1 antibodies, each separately diluted 1:200 in 0.05% Triton X-100/PBS. […] Indirect immunofluorescence was recorded on a Zeiss microscope. […]

trastuzumab: humanized monoclonal IgG1, binding with high affinity to the ectodomain of p185^Her-2/neu [reference compound]
cells that underwent apoptosis (TUNEL) (BT-474 cells; GLA 10 μg/mL, trastuzumab 10 μg/mL, alone or together, 48 hours): 13% (95% CI=11% to 15%) | TUNEL-positive cells (BT-474 cells; OA 5 μM, trastuzumab 10 μg/ml, alone or simultaneously, 72 hours): 16% | translocation of p27^Kip1 from cytosol to cell nuclei (p27^Kip1): significant translocation
